According to PubChem BioAssay AID1347056 (Sanford-Burnham Center for Chemical Genomics, 2019):
This is a selection; strong and weak results do not stand in their true shares. Calls of active or inactive are those of the source.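 How the source made its calls: active means compounds whose plate-normalised and pattern-corrected inhibition of the luciferase reporter signal at the single screening dose is 50% or more; inactive means the rest.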

Experiment: inhibitors of TROY-driven NF-kB signaling, primary screen, Q293 LMP1-TROYcd cells, NF-kB luciferase, uHTS (AID 1347056)
Conditions: Q293 LMP1-TROYcd NF-kB luciferase reporter, 4 h; at 10 µM; hits give high values
In the case of O=[N+]([O-])c1ccc(O)c(/C=N/Nc2ccc([N+](=O)[O-])cc2[N+](=O)[O-])c1, the inhibition is reported as inactive: 41.1%. With O=[N+]([O-])c1ncn(CCn2cnc([N+](=O)[O-])n2)n1 the inhibition was inactive: 2.96%. For CC(=O)NC(SC(=S)N(C)C)C(Cl)(Cl)Cl (centres undefined), the inhibition was inactive: -20.6%. In the case of O=C(OC1CN2CCC1CC2)c1cccc(Cl)c1 (centres undefined), the inhibition is reported as inactive: 3.41%. With C(Cc1nn[nH]n1)Cc1nn[nH]n1 the inhibition was inactive: 2.87%. With Nc1ccc([As](=O)(O)c2ccc([N+](=O)[O-])cc2)cc1 the inhibition was inactive: -5.69%. With O=P(Nc1ccccn1)(c1ccc(Br)cc1)c1ccc(Br)cc1 the inhibition was inactive: -14.7%. For CN(C)C1(CNC(=O)c2ccc(Cl)c(S(N)(=O)=O)c2)CCCCC1, the inhibition was inactive: 6.71%. With COc1ccc(N)c([N+](=O)[O-])c1[N+](=O)[O-] the inhibition was inactive: 1.41%. With Nc1ccc(CCCCOc2ccccc2)cc1 the inhibition was inactive: -48.8%. With O=P(Nc1nc2ccccc2s1)(c1ccccc1)c1ccccc1 the inhibition was inactive: -17.5%. With C[C@H]1OP(=O)(Oc2ccccc2)[C@H](O)[C@H](O)[C@H]1N=[N+]=[N-] (some centres undefined) the inhibition was inactive: 3.22%. For CC(C)C(=O)NC(Sc1ccccc1)C(Cl)(Cl)Cl (centres undefined), the inhibition was inactive: 3.94%. In the case of O=P(Nc1nccs1)(c1ccccc1)c1ccccc1, the inhibition is reported as inactive: -6.39%. For c1nnnn1CCn1cnnn1, the inhibition was inactive: -32.3%. With CCN(/C(=N/P(=O)(N1CCOCC1)N1CCOCC1)N1CCOCC1)c1ccc(OC)cc1 the inhibition was inactive: 11.6%. In the case of Nc1ccc([As](=O)(O)c2ccc(N)cc2)cc1, the inhibition is reported as inactive: -6.5%. In the case of C[N+]1=C2C=CC=CC=C2SC12C([N+](=O)[O-])=CC([N+](=O)[O-])=C[C-]2[N+](=O)[O-] (centres undefined), the inhibition is reported as inactive: -11.4%. With CC1CCN(C(=O)Oc2c(Cl)cc(Cl)c3cccnc23)CC1 the inhibition was inactive: -36%. With c1cc(-c2nn[nH]n2)ccc1-c1nn[nH]n1 the inhibition was inactive: -15.6%. With CC(C)c1nc(Nc2ccccc2)n(P(=O)(N(C)C)N(C)C)n1 the inhibition was inactive: 5.27%. For CC(C)=N/N=C(\N)N[N+](=O)[O-], the inhibition was inactive: -10.9%. In the case of CN(C)C(=O)OCCc1n(C)cc[n+]1C, the inhibition is reported as inactive: 3.2%. With COc1ccc(C2=NCC(CBr)S2)cc1 (centres undefined) the inhibition was inactive: 19.8%. For Cc1ccc(NP(=O)(Oc2ccccc2)Oc2ccccc2)nc1, the inhibition was inactive: 12.5%. In the case of CCc1nc2c(n1)c1c(non1O)c1c2no[n+]1[O-], the inhibition is reported as inactive: 7.25%. In the case of O=[N+]([O-])c1cc([N+](=O)[O-])c(CCNc2ccccc2)c([N+](=O)[O-])c1, the inhibition is reported as inactive: 13.2%. For O=[N+]([O-])c1cccc2n[nH]nc12, the inhibition was inactive: 9.18%. In the case of CC(=O)N1C2C3N(C(C)=O)C1C1N(C(C)=O)C(C(N1C(C)=O)N3C(C)=O)N2C(C)=O, the inhibition is reported as inactive: 4.61%. For O=[N+]([O-])c1ncn(CCn2ncnc2[N+](=O)[O-])n1, the inhibition was inactive: 0.4%. With CC(C)(C)C(=O)NC(Sc1ccncn1)C(Cl)(Cl)Cl (centres undefined) the inhibition was inactive: -6.11%. In the case of O=C(O)CNc1ccc([As](=O)(O)O)cc1, the inhibition is reported as inactive: 2.99%. With COC(=O)C1(C)COP(=O)(Nc2ccccc2)OC1 (centres undefined) the inhibition was inactive: 0.54%. With O=[N+]([O-])c1cccc(NC2=NCC(CBr)S2)c1 (centres undefined) the inhibition was inactive: -1.74%. In the case of O=P1(N(CCCl)CCCl)OCCCS1 (centres undefined), the inhibition is reported as inactive: 9.82%. For O=C(Nc1cc([As](=O)(O)O)ccc1O)c1ccccc1, the inhibition was inactive: 13.6%. For Nc1cccc2ccc([As](=O)(O)O)cc12, the inhibition was inactive: 0.04%. With CCN(N=Nc1nonc1N)c1nonc1N the inhibition was inactive: -6.81%. For O=P(Nc1nc2ccc(Cl)cc2s1)(c1ccccc1)c1ccccc1, the inhibition was inactive: -10.1%. For CN(C)P(=O)(N(C)C)n1c(Nc2ccccc2)nnc1-c1ccccc1, the inhibition was inactive: -34.4%. With CC(=O)Nc1ccc([As](=O)(O)O)cc1 the inhibition was inactive: -11.8%. With O=C(O)c1ccccc1[As](=O)(O)O the inhibition was inactive: -21.3%. For CCCC1OP(N)(=O)OCC1CC (centres undefined), the inhibition was inactive: 11%. For Cc1cc(SC(NC(=O)c2ccc(F)cc2)C(Cl)(Cl)Cl)ncn1 (centres undefined), the inhibition was inactive: -0.98%. In the case of CCOP(=O)(Nc1ccccc1)OCC, the inhibition is reported as inactive: 14.2%. For Cc1ccc(NP(=O)(Oc2ccccc2F)Oc2ccccc2F)nc1, the inhibition was inactive: -5.27%. With CN(C(=O)Cc1ccc(Cl)c(Cl)c1)[C@H]1CCCC[C@@H]1N1CCCC1 the inhibition was inactive: 4.57%. In the case of Oc1ccccc1CNc1ccccn1, the inhibition is reported as inactive: -26.6%. For O=C(NC(Sc1ccncn1)C(Cl)(Cl)Cl)c1ccccc1 (centres undefined), the inhibition was inactive: 10.4%. In the case of Nc1cc(N)c2nonc2c1[N+](=O)[O-], the inhibition is reported as inactive: 13.9%. For CC(C)CC(=O)NC(Sc1ccc(Cl)cc1)C(Cl)(Cl)Cl (centres undefined), the inhibition was inactive: -7.12%. For O=[N+]([O-])C1C(O)C(O)C([N+](=O)[O-])C(O)C1O (centres undefined), the inhibition was inactive: 8.71%. For CN(C(=O)Cc1ccc(Cl)c(Cl)c1)[C@H]1CCCC[C@H]1N1CCCC1, the inhibition was inactive: 8.67%. For Cc1ccc(N/C(=N/P(=O)(N2CCOCC2)N2CCOCC2)N2CCOCC2)cc1, the inhibition was inactive: -4.18%. In the case of NC(=O)c1cc([N+](=O)[O-])cc([N+](=O)[O-])c1N, the inhibition is reported as inactive: -25.5%. In the case of CN1CCCC(OC(=O)C(c2ccccc2)c2ccccc2)C1 (centres undefined), the inhibition is reported as inactive: 3.55%. In the case of Clc1ccc(Cl)c(NC2=NCC(CBr)S2)c1 (centres undefined), the inhibition is reported as inactive: 10.7%. In the case of COc1ccccc1OP(=O)(Nc1ccc(C)cn1)Oc1ccccc1OC, the inhibition is reported as inactive: -7.67%. With Cc1ccc(OP(=O)(Nc2nccs2)Oc2ccc(C)cc2)cc1 the inhibition was inactive: 2%.
